The values that follow come from PubChem BioAssay AID1046 (PCMD, 2008).

The list shows a part of the results, in another mix than the full data. Some results for these compounds are left out of this collection, so the calls shown say nothing about other tests. Calls of active or inactive are those of the source.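 How the source made its calls: active means inhibition at or above 40%; inactive means inhibition below 40%.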

For this assay, the target named is Prothrombin (Homo sapiens) (UniProt P00734). The assay can be described thus: human alpha-thrombin inhibitors, primary screen, counter-screen for coagulation protease inhibitor project, biochemical, 1536-well, fluorogenic AMC substrate (AID 1046).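 Further: 0% = enzyme with no compound and 100% = wells without enzyme.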 Conditions: Boc-VPR-AMC fluorogenic substrate cleavage, at 5 µM, hits give high values.
Turning to `O=C(NCC1(N2CCCCC2)CCCCC1)c1cc([N+](=O)[O-])ccc1Cl`, the inhibition (commonly the drop in the measured response relative to a control, in per cent) was inactive: -0.86%.
With `CC(C)N1C(=O)CC2(CCN(CCOC(=O)C(O)(c3ccccc3)c3ccccc3)CC2)C1=O` the figure was inactive: -3.61%; with `CCN(CC)CC(C)C(C)OC(=O)C(O)(c1ccccc1)c1ccccc1` (stereo unspecified), inactive: -2.85%.
As for `Cc1ccccc1C(=O)NCC1(N2CCCCC2)CCCCC1`, the inhibition was inactive: -2.41%.
Consider `CN(C)C1CCCC1OC(=O)C(O)(c1ccccc1)c1ccccc1` (stereo unspecified), for which the inhibition is inactive: -3.95%.
The value for `CCN1CCCC(OC(=O)C2(O)c3ccccc3C=Cc3ccccc32)C1` (stereo unspecified) was inactive: 0.34%; that for `C=CCN1CCN(CCOC(=O)C(O)(c2ccccc2)c2ccccc2)CC1` was inactive: -9.82%.
With `COc1cccc(C(=O)NCC2(N3CCCCC3)CCCCC2)c1` the figure was inactive: -3.34%.
On to `O=C(OC1CN2CCC1CC2)C(CO)(c1ccccc1)c1ccccc1` (stereo unspecified), for which the inhibition was inactive: -3.02%.
The value for `CN(C)c1cccc(C(=O)NCC2(N(C)C)CCCCC2)c1` was inactive: 2.94%; that for `COc1ccc(Br)c(C(=O)NCC2(N3CCCCC3)CCCCC2)c1` was inactive: 0.45%.
